US20250171459A1, “2-METHYL-4',5'-DIHYDROSPIRO[PIPERIDINE-4,7'-THIENO[2,3-C]PYRAN] DERIVATIVES AS INHIBITORS OF APOL1 AND METHODS OF USING SAME” (Vertex Pharmaceuticals Incorporated, priority 2022, published 2025)

Chains of the proteins cited; added tags and fusions are not shown.
UniProt O14791, whole entry S342G/I384M: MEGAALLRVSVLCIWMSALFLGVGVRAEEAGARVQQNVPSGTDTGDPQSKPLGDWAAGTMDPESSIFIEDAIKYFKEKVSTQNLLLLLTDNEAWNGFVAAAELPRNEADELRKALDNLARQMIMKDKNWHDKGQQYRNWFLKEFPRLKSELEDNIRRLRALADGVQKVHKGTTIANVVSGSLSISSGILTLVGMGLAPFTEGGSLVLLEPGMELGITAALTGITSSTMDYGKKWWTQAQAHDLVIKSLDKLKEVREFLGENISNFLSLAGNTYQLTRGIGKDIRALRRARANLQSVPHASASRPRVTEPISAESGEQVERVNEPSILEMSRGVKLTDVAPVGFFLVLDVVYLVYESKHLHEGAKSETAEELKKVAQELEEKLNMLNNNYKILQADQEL

Biological target: APOL1 (Homo sapiens, UniProt O14791)
Test: MultiTox-Fluor Multiplex Cytotoxicity Assay in tet-inducible APOL1 T-REx-HEK293 cells (cell rescue, ratio of dead to live cells)
Settings: read-out: IP50 (i.e., IC50 for cell proliferation); tet-inducible transgenic APOL1 T-REx-HEK293 cell lines, 50 ng/mL tet, 24 hours

`CC1COC2(CCN(Cc3cnn(C)c3)CC2)c2cc(Cl)sc21` (single isomer, unassigned) showed an IC50 of 100 to 500 nM.
